From ChEMBL document CHEMBL5034000, “Novel Bisubstrate Inhibitors for Protein N-Terminal Acetyltransferase D” (J Med Chem, 2021)

Tests used:
Homo sapiens [1] = species: Homo sapiens; test: Selectivity ratio of inhibition of human PCAF to inhibition of human NatD
Homo sapiens [2] = species: Homo sapiens; test: Selectivity ratio of inhibition of human NatB to inhibition of human NatD
Homo sapiens [3] = species: Homo sapiens; test: Selectivity ratio of inhibition of human NatE to inhibition of human NatD

Measured: Selectivity ratio

CC(C)(COP(=O)(O)OP(=O)(O)OC[C@H]1O[C@@H](n2cnc3c(N)ncnc32)[C@H](OP(=O)(O)O)[C@@H]1O)C(O)C(=O)NCCC(=O)NCCSCCC(=O)N[C@@H](CO)C(=O)NCC(=O)N[C@@H](CCCNC(=N)N)C(=O)NCC(=O)N[C@@H](CCCCN)C(N)=O (stereo partly drawn)
10000: all assays above
